# Yeast mating assay 1: variants of the scFv Ab-14

Data: MIT Lincoln Laboratory AlphaSeq set, Engelhart et al. 2022, doi:10.1038/s41597-022-01779-4, as distributed in FLAb.

Binding partner: SARS-CoV-2 spike HR2 peptide, sequence PDVDLGDISGINAS.

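AAYL50 was designed without a model: most single CDR substitutions and a random sample of double and triple ones. The scFvs were displayed on barcoded MATa yeast, the peptide on MATalpha yeast. Pairs that bind mate more often; barcode pairs of the diploids are counted by sequencing. A regression on co-assayed BCL2-family reference pairs converts the normalised counts of each replicate to an apparent Kd. Mating was done three times.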

Parent: Ab-14, a human scFv built as VH, the linker GGGGSGGGGSGGGGS, VL. Only the CDRs of the light chain vary.
VH: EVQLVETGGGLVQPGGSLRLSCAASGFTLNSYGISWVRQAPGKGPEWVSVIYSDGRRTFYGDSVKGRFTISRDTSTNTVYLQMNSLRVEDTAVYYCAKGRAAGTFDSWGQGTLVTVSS
VL: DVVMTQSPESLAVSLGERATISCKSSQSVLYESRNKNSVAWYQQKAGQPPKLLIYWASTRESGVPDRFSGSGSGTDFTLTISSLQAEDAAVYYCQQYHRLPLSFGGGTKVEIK

The parent's light chain CDRs are KSSQSVLYESRNKNSVA, WASTRES, QQYHRLPLS; each variant's own CDRs replace them letter for letter.
Numbers give log10(Kd / nM), so 0 is 1 nM and 3 is 1 µM. Smaller is tighter.
A mean of the replicates is given; it leaves out those without a signal.
Where no diploid with the target was found in that replicate, the entry reads "n.d.": below detection, most likely a poor binder, though not proof of it.
In this assay the parent's reference entry averaged 0.65; its copy inside this library read 1.68.
As a blank, each scFv also met three strains without target: over library AAYL50, 18% of these pairings were detected, typically at 4.19 and seldom below 2.99. The control count says in how many pairings with the empty strains this scFv gave a signal, with their mean in brackets.

CDR-L1,CDR-L2,CDR-L3,"replicates, log10 nM","mean, log10 nM",control signals
KSSDSVLYESRNKNSWA,WASTRES,QCYHRLPLS,n.d. / n.d. / n.d.,n.d.,4 of 9 (4.33)
KQSQSVLYESRNKNSVA,VASTREL,QQYHRLPLS,n.d. / n.d. / 3.62,3.62,0 of 9
KSSQSVLYESRFKNSVA,WVSTRES,QQCHRLPLS,6.39 / n.d. / 4.06,5.22,2 of 9 (4.69)
KPSQSVLYESRNKNSVA,WASTRWS,QQIHRLPLS,n.d. / n.d. / 3.10,3.10,0 of 9
KSSQSVLYESRNKNSVA,WASTRES,WQYHGLKLS,n.d. / n.d. / n.d.,n.d.,1 of 9 (4.48)
KSSQSVLYASDNKNSVA,WASTRES,QQYDRLPLS,0.80 / 1.01 / 1.08,0.96,0 of 9
KHEQSVLYESRNKNSVA,GASTRES,QQYHRLPLS,-0.35 / 0.06 / -0.23,-0.17,5 of 9 (4.85)
PSSQSVLYESRNKNSVA,WASTRGS,YQYHRLPLS,n.d. / n.d. / 2.80,2.80,1 of 9 (2.65)
KSSQSVLYESRNKNRIQ,WASTRES,QQYHRLPLS,n.d. / n.d. / n.d.,n.d.,1 of 9 (4.48)
KSSQSVLYESRNKNSVP,WASTRES,QQYCRLPLP,n.d. / 4.60 / n.d.,4.60,1 of 9 (2.39)
KSSQSVLYESRNKNNVA,WASTRES,RNYHRLPLS,n.d. / 4.11 / 4.60,4.36,6 of 9 (4.33)
KSSQNVLYESRNKNSVA,WASTREW,QQYHHLPLS,0.92 / 0.96 / 0.83,0.90,1 of 9 (4.11)
KSSQKVLYESRNTNSVA,WASTRES,QQYHRYPLS,3.10 / 3.20 / 3.15,3.15,1 of 9 (5.18)
KSSQSVLYESRNKNSVC,WASTRES,QQYHRTPLS,5.16 / 4.35 / 4.28,4.59,2 of 9 (4.53)
KSSQSVKYESRNKNSVA,WASTRES,YEYHRLPLS,n.d. / 2.77 / n.d.,2.77,2 of 9 (4.31)
KWSQSVLYMSRNKNSVA,WASTRES,QQYHRLHLS,n.d. / n.d. / n.d.,n.d.,0 of 9
KSSTSVLYWSRNKQSVA,WASTRES,QQYHRLPLS,1.78 / 1.88 / 1.82,1.83,1 of 9 (4.68)
KSSQSVLYESRNKNSVA,YASTRES,AQYTRLPLS,3.00 / 1.86 / n.d.,2.43,0 of 9
KSCQSVLYEGRNKNSVA,YASTRES,QQYHRLPLS,n.d. / n.d. / n.d.,n.d.,0 of 9
KSSGSVLYESRNKNSVA,WESTRLS,QQYHRLPLS,1.11 / 1.18 / 1.32,1.20,1 of 9 (4.88)
KSSQSVLYESRNENFVA,WASTRES,QSYHRLPLS,2.06 / 1.78 / 2.07,1.97,2 of 9 (4.87)
KSSDSVLYEGTNKNSVA,WASTRES,QQYHRLPLS,1.20 / 1.34 / 1.18,1.24,2 of 9 (4.70)
KPSQSVLYESMNKNNVA,WASTRES,QQYHRLPLS,1.90 / 2.14 / 2.12,2.05,1 of 9 (5.54)
KSSQSVLYISRNKNSVA,WASTRES,QQYWRLPLS,2.94 / 2.52 / 2.75,2.74,2 of 9 (3.95)
KSSQSVLYESRNKNSVA,WAFTRES,EQYHRLMLS,n.d. / n.d. / n.d.,n.d.,0 of 9
KSSQTVLYWSRNKNSLA,WASTRES,QQYHRLPLS,3.58 / 2.94 / 3.76,3.43,1 of 9 (4.01)
KSSGSVLYESRNMNSVA,WASTRES,QQYHRLPLS,0.53 / 0.70 / 0.66,0.63,1 of 9 (3.03)
KSSQSVLYINRNKNSVA,WASTRES,QLYHRLPLS,n.d. / n.d. / n.d.,n.d.,1 of 9 (3.51)
KSSQSVLYESRNKNSVA,WAKTRES,QQYHRLPLE,n.d. / 3.65 / 6.44,5.05,5 of 9 (4.33)
KSSQSVLAESRLKNSVA,WRSTRES,QQYHRLPLS,2.96 / 4.02 / 2.86,3.28,3 of 9 (4.68)
KSPQSVLAEWRNKNSVA,WASTRES,QQYHRLPLS,0.77 / 1.13 / 1.24,1.05,1 of 9 (5.12)
KSSTKVHYESRNKNSVA,WASTRES,QQYHRLPLS,1.47 / 1.37 / 2.14,1.66,0 of 9
KSSQSVLCESRNKNSVA,WASTREN,QQYHKLPLS,n.d. / 2.89 / n.d.,2.89,0 of 9
KSTQSVLPESRNKNSVA,WASTRES,GQYHRLPLS,n.d. / 2.78 / 3.31,3.05,2 of 9 (4.21)
KSKQSVLYESPNKNSVA,WASTRES,QQYHRFPLS,0.76 / 1.12 / 1.34,1.07,0 of 9
KSDQSRLYESRNKNSVA,WASTRES,QQYHRLPQS,n.d. / 3.62 / 4.75,4.19,7 of 9 (4.58)
KSSQSVLYESRNKSSVA,WAVTRES,QQYHALPLS,2.32 / 2.25 / 2.78,2.45,4 of 9 (3.86)
KSSQSVLYESRNKNSVA,EASTRES,TQYHRLPLS,2.95 / 3.52 / n.d.,3.24,3 of 9 (5.04)
KSSQSVLYFSRNKNSVA,WASTRES,PQDHRLPLS,1.62 / 1.89 / 1.46,1.66,1 of 9 (4.14)
KMSQSVLFESRNKNSVA,WASTRES,IQYHRLPLS,0.69 / 0.93 / 1.02,0.88,0 of 9
KSDWSVLYESRNKNSVA,WASTMES,QQYHRLPLS,n.d. / 3.27 / n.d.,3.27,2 of 9 (4.03)
KSSQSVLYESHNKNSVA,WASTLES,QQYHRLFLS,n.d. / n.d. / n.d.,n.d.,0 of 9
KSSQSVLYESRNKNSVA,WASIRES,GQYHRLPAS,1.07 / 1.16 / 1.22,1.15,2 of 9 (4.74)
KSSQSVLYESRNKNSVS,WASTREF,KQYHRLPLS,n.d. / n.d. / n.d.,n.d.,1 of 9 (4.37)
KSSQSVLMESRNKNSVA,WASTRES,QQYQHLPLS,1.08 / 1.18 / 1.54,1.26,0 of 9
KSSQSVLYESRIKNSVA,WHSTRES,QQYHILPLS,n.d. / n.d. / n.d.,n.d.,1 of 9 (3.23)
KSSQSVLYESQNKNSRA,WADTRES,QQYHRLPLS,2.53 / n.d. / n.d.,2.53,1 of 9 (2.08)
KSSFSVLYERRNKNSVI,WASTRES,QQYHRLPLS,n.d. / n.d. / n.d.,n.d.,3 of 9 (4.01)
KSSQSVLYESANANSVA,WASTRES,QQYHRLPLH,1.11 / 1.35 / 0.64,1.03,0 of 9
KSSQSVLYESRNKNSFA,WASTREF,QQYHRLPLS,n.d. / n.d. / n.d.,n.d.,0 of 9
KSSQSVWYESRNCNSVA,WASTRES,QQYHRLPLN,1.35 / 1.52 / 1.56,1.48,3 of 9 (5.07)
KSSQKVLYESRNKNSVA,WADTRES,QQGHRLPLS,n.d. / n.d. / n.d.,n.d.,1 of 9 (2.27)

From the list, the first 7 with no signal in any replicate:

CDR-L1,CDR-L2,CDR-L3,"replicates, log10 nM","mean, log10 nM",control signals
KSSDSVLYESRNKNSWA,WASTRES,QCYHRLPLS,n.d. / n.d. / n.d.,n.d.,4 of 9 (4.33)
KSSQSVLYESRNKNSVA,WASTRES,WQYHGLKLS,n.d. / n.d. / n.d.,n.d.,1 of 9 (4.48)
KSSQSVLYESRNKNRIQ,WASTRES,QQYHRLPLS,n.d. / n.d. / n.d.,n.d.,1 of 9 (4.48)
KWSQSVLYMSRNKNSVA,WASTRES,QQYHRLHLS,n.d. / n.d. / n.d.,n.d.,0 of 9
KSCQSVLYEGRNKNSVA,YASTRES,QQYHRLPLS,n.d. / n.d. / n.d.,n.d.,0 of 9
KSSQSVLYESRNKNSVA,WAFTRES,EQYHRLMLS,n.d. / n.d. / n.d.,n.d.,0 of 9
KSSQSVLYINRNKNSVA,WASTRES,QLYHRLPLS,n.d. / n.d. / n.d.,n.d.,1 of 9 (3.51)